From patent US20150110865A1, “CNS STIMULANT AND OPIOID RECEPTOR ANTAGONIST COMBINATION AS A NON-ADDICTIVE, NON-AVERSIVE AND SYNERGISTIC ANTI-OBESITY TREATMENT” (FLORIDA STATE UNIVERSITY RESEARCH FOUNDATION, priority 2013, published 2015)

System: μ opioid receptor (MOPR)
Assay: MOPR activity by DAMGO-stimulated [35S]GTPγS binding in brain membranes of drug-treated mice after the CPP assay
Type: in vivo, mouse
Settings: high-dose MPH 7.5 mg/kg
Experimental: Activity of the μ opioid receptor (MOPR) is assayed by using [35S]GTPγS binding on membrane preparations. The same mice that are used in the conditioned place preference assay are used for these assays Immediately upon completion of the behavioral assay, the mice are sacrificed by cervical dislocation and the brain is dissected rapidly. The brain is frozen in liquid nitrogen and 1.0 mm slices of the brain were prepared in the coronal plane using a tissue-slicing matrix (Model 15003; Ted Pella, Redding, Calif.). Caudate-putamen and nucleus accumbens are identified in the frozen slices based on anatomical landmarks and samples from these two brain regions are collected using a tissue punch. The samples are homogenized using teflon pestle in Eppendorf tubes (10 strokes) in 300 μl of homogenization buffer containing 25 mMTris/pH 7.4, 5 mMEDTA and 0.1 mMPMSF and kept on ice. Homogenate is diluted to 2.5 ml using the homogenization buffer and centrifuged at −350,000 g for 30 min. […]
Nonspecific binding is defined by incubation in the presence of 10 μM GTPγS. […] Radioactivity on filters is determined by liquid scintillation counting. […]
Differences between two experimental groups are analyzed for statistical significance by using Student's t-test. […]

SMILES: COC(=O)C(c1ccccc1)C1CCCCN1 (centres unmarked) [MPH, methylphenidate]
- MOPR activity compared to the saline group (after naltrexone CPP experiment, caudate-putamen and nucleus accumbens, n=8, FIG. 7): significantly higher than that in the saline group
- MOPR activity compared to the saline group (caudate-putamen and nucleus accumbens (both regions), p<0.05, n=6, FIG. 4): significant increases in MOPR activity
